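Exposure lasted 48 hours, with cells grown in 96-well plates and compounds tested at five concentrations. GI50 is the concentration that inhibits growth by half. TGI is the concentration that stops growth completely.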
Legend:
Experiment in all cases: growth of human tumour cells (NCI), 48 h
[1] = test system: UO-31 renal
[2] = test system: U251 CNS
[3] = test system: MDA-MB-435
[4] = test system: RPMI-8226 leukemia
[5] = test system: COLO 205 colon
[6] = test system: NCI-H460 lung
[7] = test system: SW-620 colon
[8] = test system: OVCAR-3 ovarian
[9] = test system: DU-145 prostate
[10] = test system: PC-3 prostate
[11] = test system: SNB-75 CNS
[12] = test system: A549 NSCLC
[13] = test system: SK-MEL-2 melanoma
[14] = test system: HT29 colon
[15] = test system: RXF 393 renal
[16] = test system: HOP-62 NSCLC
[17] = test system: TK-10 renal
[18] = test system: UACC-257 melanoma
[19] = test system: MCF7 breast
[20] = test system: NCI-H522 lung
[21] = test system: NCI-H322M lung
[22] = test system: UACC-62 melanoma
[23] = test system: NCI-H226 lung
[24] = test system: HOP-92 NSCLC
[25] = test system: ACHN renal
[26] = test system: K-562 leukemia
[27] = test system: 786-0 renal
[28] = test system: SNB-19 CNS

C(Cc1nn[nH]n1)c1nn[nH]n1
TGI [1]: > 100 µM | GI50 [2]: > 100 µM | TGI [2]: > 100 µM | GI50 [3]: > 100 µM | TGI [3]: > 100 µM | GI50 [4]: > 100 µM | TGI [4]: > 100 µM | GI50 [5]: > 100 µM | TGI [5]: > 100 µM | GI50 [6]: > 100 µM | TGI [6]: > 100 µM | GI50 [7]: > 100 µM | TGI [7]: > 100 µM | GI50 [8]: > 100 µM | TGI [8]: > 100 µM | GI50 [9]: > 100 µM | TGI [9]: > 100 µM | GI50 [10]: > 100 µM | TGI [10]: > 100 µM | GI50 [11]: > 100 µM | TGI [11]: > 100 µM | GI50 [12]: > 100 µM | TGI [12]: > 100 µM | GI50 [13]: > 100 µM | TGI [13]: > 100 µM | GI50 [14]: > 100 µM | TGI [14]: > 100 µM | GI50 [15]: > 100 µM | TGI [15]: > 100 µM | GI50 [16]: > 100 µM | TGI [16]: > 100 µM | GI50 [17]: > 100 µM | TGI [17]: > 100 µM | GI50 [18]: > 100 µM | TGI [18]: > 100 µM | GI50 [19]: > 100 µM | TGI [19]: > 100 µM | GI50 [20]: > 100 µM | TGI [20]: > 100 µM | GI50 [21]: > 100 µM | TGI [21]: > 100 µM | GI50 [22]: > 100 µM | TGI [22]: > 100 µM | GI50 [23]: > 100 µM | TGI [23]: > 100 µM | GI50 [24]: > 100 µM | TGI [24]: > 100 µM | GI50 [25]: > 100 µM | TGI [25]: > 100 µM | GI50 [26]: > 100 µM | TGI [26]: > 100 µM | GI50 [27]: > 100 µM | TGI [27]: > 100 µM | GI50 [28]: > 100 µM | TGI [28]: > 100 µM

— PubChem BioAssay (NCI)
